Data taken from patent publication US20050234026A1, “Method and agent for inducing apoptosis/cell death in leukemia cells” (priority 2003, published 2005).

Legend:
[1] = target: pure human enzyme NOS2 (Homo sapiens, UniProt P35228); experiment: Kd for enzyme inhibition, pure human NOS2; format: biochemical
[2] = system: CLL cells; experiment: Cytotoxicity of NOS inhibitors and NO quenchers/scavengers for freshly-isolated CLL cells in vitro; format: cell-based, human; settings: Table 2, CLL cytotoxicity

Row | Structure (SMILES) | Kd [1] | ED50 for CLL [2]
1 | Cc1cccc(N)n1 [2-amino-6-methyl pyridine] | 0.26 µM | –
2 | CC(=N)NCc1cccc(CN)c1 [1400W, N-(3-(aminomethyl)benzyl)acetamidine] | – | >2000 µM
